Consider nine compounds from paper PMC5733478, “A Non-imaging High Throughput Approach to Chemical Library Screening at the Unmodified Adenosine-A3 Receptor in Living Cells” (Frontiers in Pharmacology, 2017).

By UniProt entry, the sequences of proteins in these tests, tags left out.
UniProt P0DMS8, whole entry: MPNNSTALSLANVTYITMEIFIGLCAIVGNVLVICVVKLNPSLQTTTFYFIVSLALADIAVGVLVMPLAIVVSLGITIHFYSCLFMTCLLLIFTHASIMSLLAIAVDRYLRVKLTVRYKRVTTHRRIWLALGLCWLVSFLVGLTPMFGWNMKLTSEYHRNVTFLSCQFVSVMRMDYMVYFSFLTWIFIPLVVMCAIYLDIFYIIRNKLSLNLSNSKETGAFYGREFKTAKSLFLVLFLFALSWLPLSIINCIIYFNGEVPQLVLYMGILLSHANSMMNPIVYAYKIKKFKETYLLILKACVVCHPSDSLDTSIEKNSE

Where a name gives a salt, the structure may show the parent alone.

The assay addresses human A3AR (Homo sapiens, UniProt P0DMS8). Description: LOPAC library primary screen: single concentration (10 μM) inhibition of 25 nM CA200645 binding, PHERAstar FS.
`CNC(=O)[C@H]1O[C@@H](n2cnc3c(NCc4cccc(I)c4)nc(Cl)nc32)[C@H](O)[C@@H]1O` [2-Cl-IB-MECA, reference compound]: the “% Total CA200645 binding” value worked out at 32.3 ± 6.1%.
Same read-out and setting: with `CCNC(=O)[C@H]1O[C@@H](n2cnc3c(N)ncnc32)[C@H](O)[C@@H]1O` [NECA, reference compound] the figure was 38.1 ± 4.3%.
Take `CNC(=O)[C@H]1O[C@@H](n2cnc3c(NCc4cccc(I)c4)nc(Cl)nc32)[C@H](O)[C@@H]1O` [Chloro-IB-MECA]: the “% 25 nM CA200645 binding” value came to 32.3 ± 6.1%.
On the same count and under the same terms, the result for `CCCn1c(=O)c2[nH]c(C3CCCC3)nc2n(CCC)c1=O` [8-Cyclopentyl-1,3-dipropylxanthine] reads 56.3 ± 3.4%; that for `CCNC(=O)[C@H]1O[C@@H](n2cnc3c(N)nc(NCCc4ccc(CCC(=O)O)cc4)nc32)[C@H](O)[C@@H]1O.Cl` [CGS-21680 hydrochloride], 65.7 ± 8.4%.
Regarding `CN(C)CCOC(c1ccccc1)c1ccccc1` [Diphenhydramine hydrochloride], the “% 25 nM CA200645 binding” value came out at 101.8 ± 15.9%.
Turning to `CC(Cc1ccc(O)cc1)NCC(O)c1cc(O)cc(O)c1` (stereo not drawn) [Fenoterol hydrobromide], the “% 25 nM CA200645 binding” value is 81.9 ± 17.1%.
`CCNC(=O)[C@H]1O[C@@H](n2cnc3c(N)ncnc32)[C@H](O)[C@@H]1O` [5'-N-Ethylcarboxamidoadenosine]: the “% 25 nM CA200645 binding” value is 38.1 ± 4.3%.
Consider `CCCn1c(=O)c2[nH]c(C3CCCC3)nc2n(CCC)c1=O` [DPCPX, reference compound], for which the “% Total CA200645 binding” value turned out to be 56.3 ± 3.4%.
